Results taken from PMC9862751, “Identifying Dopamine D3 Receptor Ligands through Virtual Screening and Exploring the Binding Modes of Hit Compounds” (Molecules, 2023).

By UniProt entry, the sequences of proteins in these tests, tags left out. Where a name states a change or a piece, a line headed by the entry shows the natural chain unless it says otherwise.
UniProt P35462, whole entry: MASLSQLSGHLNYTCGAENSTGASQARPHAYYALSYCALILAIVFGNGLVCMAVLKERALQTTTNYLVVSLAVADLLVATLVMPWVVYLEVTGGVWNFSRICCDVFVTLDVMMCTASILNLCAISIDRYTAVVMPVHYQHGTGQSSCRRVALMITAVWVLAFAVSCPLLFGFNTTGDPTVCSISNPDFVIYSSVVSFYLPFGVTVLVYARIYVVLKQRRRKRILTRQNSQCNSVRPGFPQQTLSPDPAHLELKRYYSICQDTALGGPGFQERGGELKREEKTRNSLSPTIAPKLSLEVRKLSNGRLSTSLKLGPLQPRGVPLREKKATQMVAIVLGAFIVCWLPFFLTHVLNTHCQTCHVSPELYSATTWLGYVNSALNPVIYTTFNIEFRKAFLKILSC

Biological target: human D3R (Homo sapiens, UniProt P35462)
Test: [3H]-spiperone filtration binding assay on membranes from CHO–hDRD3 cells
Conditions: for Inhibition Rate at 10 µM: 10 µM test compound, displacement of [3H]-spiperone; for IC50: concentration-displacement curves, [3H]-spiperone

Row | SMILES | Inhibition Rate at 10 µM [%] | IC50 [µM]
1 | Clc1ccc(Cn2cc3c(-c4ccc5c(c4)OCO5)nnc-3c3cc4c(cc32)OCO4)cc1 | 82.4 | 4.51
2 | O=C(Cn1nc2n(CCc3ccccc3)c(=O)c3ccccc3n2c1=O)c1cccc(Cl)c1 | 80.1 | 5.98
3 | CN1CCN(c2cc(-c3nc(-c4ccc(Cl)cc4)no3)c3ccccc3n2)CC1 | 89.3 | 4.11
4 | O=C(c1cccn2c(=O)c3cc4ccccc4cc3nc12)N1CCN(c2ncccn2)CC1 | 84.2 | 4.53
5 | O=c1c2ccccc2n2c(=O)n(Cc3ccccc3)nc2n1CCc1ccccc1 | 91.1 | 3.45
6 | O=S(=O)(c1ccccc1F)N1CCC(c2nc(O)c3nnn(Cc4ccc5c(c4)OCCO5)c3n2)CC1 | 82.3 | 4.49
